According to patent publication US20250127912A1, “COMPOSITIONS FOR DELIVERY OF POLYNUCLEOTIDES” (miRecule, Inc., priority 2021, published 2025):

Tests used:
[1] = test system: luciferase reporter containing miR-30 target sites (UM-SCC-1^luc); assay: Luciferase reporter knockdown assay in UM-SCC-1^luc cells; type: cell-based; conditions: Cetuximab conjugates DAR 1 or 4, +/- PolyR12; 50-12.5 nM (oligo), 5 days; RLU normalized to XTT and Control Oligo conjugate
[2] = Biodistribution of IR750-NCD5 cetuximab conjugates in mice with orthotopic UM-SCC-1^luc tumors; conditions: 5 mg/kg IR750-NCD5 cetuximab conjugate, N/P of 1; 24 and 48 hours

With Cetuximab-miRNA Conjugate the “knockdown of luciferase reporter activity” value [1] was “improves knockdown of a luciferase reporter” and the “delivery to the tumor (IR-750 fluorescence)” value [2] was “improves delivery to tumor”.
